Experimental data as given in article PMC12216609, “Inhibitors of eIF1A-ribosome interaction unveil uORF-dependent regulation of translation initiation and antitumor and antiviral effects” (The EMBO Journal, 2025).

Protein sequences, listed by entry. Tags and fused reporters are not part of them. Residues count along the entry.
UniProt P47813, whole entry: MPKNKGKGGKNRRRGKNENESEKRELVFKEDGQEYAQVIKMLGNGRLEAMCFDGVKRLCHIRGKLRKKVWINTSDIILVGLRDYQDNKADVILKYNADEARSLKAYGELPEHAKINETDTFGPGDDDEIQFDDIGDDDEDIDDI
UniProt P47813, 31-144 limits assumed: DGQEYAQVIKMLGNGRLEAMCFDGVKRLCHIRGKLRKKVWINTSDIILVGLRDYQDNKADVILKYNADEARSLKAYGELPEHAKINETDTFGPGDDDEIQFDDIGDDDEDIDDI
UniProt P47814, whole entry: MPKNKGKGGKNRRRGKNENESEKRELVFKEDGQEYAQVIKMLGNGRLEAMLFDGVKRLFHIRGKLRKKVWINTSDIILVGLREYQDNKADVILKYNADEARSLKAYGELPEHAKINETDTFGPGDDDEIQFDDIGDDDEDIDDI

Key:
eIF1A-RPS10 interaction = eIF1A-RPS10 interaction (Homo sapiens, UniProt P46783+P47813); test: Split-Renilla luciferase eIF1A-RPS10 interaction screen, dose-response; assay type: biochemical; settings: read-out: IC50 concentration (µM), IC50 screen; summary table
eIF1A without NTT = eIF1A without NTT (Homo sapiens, UniProt P47813); test: Fluorescence binding assay with NTT-truncated eIF1A
[1] = system: CUG/GUG vs AUG start codon luciferase reporters in HEK293T cells; test: Near-cognate AUG starting codon fidelity reporter assay (GUG, CUG vs AUG); assay type: cell-based
[2] = target: eIF1A association with the 48S complex (Oryctolagus cuniculus, UniProt P47814); test: In-vitro analysis of 48S formation in rabbit reticulocyte lysate; assay type: biochemical; settings: sucrose gradient, WB
[3] = target: eIF1A-RPS10 interaction in HEK293T cells (Homo sapiens, UniProt P46783+P47813); test: Proximity ligation assay (PLA); assay type: cell-based; settings: 3 h
[4] = system: IRF7 5'UTR reporter mutants in HEK293T cells; test: IRF7 C+5 mutants translation (barcoded reporters, polysome vs total RNA); assay type: cell-based; settings: 20 µM
OVCAR8 = OVCAR8 viability (Cell TiterGlo); assay type: cell-based; settings: 72 h
1Ais toxicity in mice = assay type: in vivo, C57 black mice; settings: for Euthanized Notes: individual animals
[5] = system: OVCAR8 cell-derived xenograft; test: Xenografts growth after 1Ais treatment in mice; assay type: in vivo
[6] = system: luciferase reporter mRNA in HEK293T cells; test: Reporter gene mRNA levels by qPCR after 1Ais treatment; assay type: cell-based; settings: five reporter genes
eIF1A [7] = target: T1, eIF1A (Homo sapiens, UniProt P47813)
RPS10 = RPS10 (Homo sapiens, UniProt P46783)
eIF1A [8] = target: T1, eIF1A; remark: listed apart in the source
[9] = system: IRF7 5'UTR firefly luciferase reporter in HEK293T cells;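 also: luciferase signal corrected by a co-transfected GFP reporter for transfection efficiency, read after overnight compound exposure, with Long and Short reporters differing in 5'UTR length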
[10] = system: uORF-bearing 5'UTR firefly reporters in HEK293T cells; test: uORF reinitiation / leaky scanning firefly reporters; settings: for normalize to DMSO, AVE: DMSO = 1
[11] = 8 mg/kg i.p. five times a week, 4 weeks

O=C1c2ccccc2NC(c2cc(O)c(O)c(Cl)c2)N1c1ccccc1 (centres unmarked) [1A-8214]
IC50 (eIF1A-RPS10 interaction): 17 µM
binding to NTT-truncated eIF1A (eIF1A without NTT): no binding
NTT truncation IC50 (eIF1A without NTT; eIF1A without NTT): No binding
IC50 concentration (µM), NTT truncation (eIF1A without NTT; summary table, fluorescence binding assay): No binding
near-cognate start codon translation [1]: increased translation from near-cognate AUG starting codons
CUG vs AUG (%) ([1]; CUG start codon reporter relative to AUG reporter (AUG = 100), compound at 20uM (summary head), single-experiment calculation): 10.3613%
GUG vs AUG (%) ([1]; GUG start codon reporter relative to AUG reporter (AUG = 100), compound at 20uM (summary head), single-experiment calculation): 2.395%
average CUG and GUG ([1]; NUG experiment): 9.7574
CUG Average ([1]; NUG experiment, CUG vs AUG reporter): 16.2895
GUG Average ([1]; NUG experiment, GUG vs AUG reporter): 3.225
GUG vs AUG (%) Average ([1]; compound at 20uM, summary average of repeats, DMSO control average […]): 3.23%
eIF1A association with the 48S [2]: found mostly in the top fractions of the gradient
RPS10-eIF1A PLA interaction signal [3]: diminished the RPS10-eIF1A interaction signal to almost background levels
inhibitory effect on IRF7-Kozak/C5 compared to IRF7-Kozak [4]: moderately yet significantly increased
Viability normalized to 0 conc. (OVCAR8; 0.5 uM): 98.7%
Viability summary (raw signal) (OVCAR8; 0.5 uM): 82379.5
Viability normalized to 0 conc. (OVCAR8; 1 uM (first line)): 104%
Viability summary (raw signal) (OVCAR8; 1 uM (first line)): 87182
Viability normalized to 0 conc. (OVCAR8; 1 uM (second line, after 0.5)): 102%
Viability summary (raw signal) (OVCAR8; 1 uM (second line, after 0.5)): 85137.8
Viability normalized to 0 conc. (OVCAR8; 2.5 uM): 95.3%
Viability summary (raw signal) (OVCAR8; 2.5 uM): 79568.5
Viability normalized to 0 conc. (OVCAR8; 5 uM): 79.4%
Viability summary (raw signal) (OVCAR8; 5 uM): 66246.8
Viability normalized to 0 conc. (OVCAR8; 10 uM): 55.2%
Viability summary (raw signal) (OVCAR8; 10 uM): 46083
Viability normalized to 0 conc. (OVCAR8; 20 uM): 28.8%
Viability summary (raw signal) (OVCAR8; 20 uM): 24026
OVCAR8 cell viability (OVCAR8; refreshed every 24 h): reduced OVCAR8 cell viability
Euthanized Notes (1Ais toxicity in mice; group 4): 1/4 Spleen dark red
Euthanized Notes (1Ais toxicity in mice; group 8): 1/2 Spleen dark red
toxicity in mice (well-being, weight) (1Ais toxicity in mice; up to 8 mg/kg five times a week for 3 weeks): no apparent toxicity
treatment-specific side effects in xenograft mice [5, 11]: did not seem to suffer from any treatment-specific side effects
tumor size and weight [5, 11]: clear reduction in tumor size and weight
Weight of tumor, average ([5]; group average): 0.3281
Weight of tumor, t.test ([5]; t.test vs DMSO): 0.01946
effect on reporter mRNA levels [6]: did not exhibit any apparent effect on the mRNA levels
binding of eIF1A (eIF1A [7]): binds both eIF1A and RPS10
IC50 (eIF1A [7]; read-out: IC50 (eIF1A titration block), eIF1A, from the titration data): 37.4 µM
IC50 (eIF1A [7]; read-out: IC50 concentration (µM), WT eIF1A, summary table, fluorescence binding assay): 37.4 µM
binding of RPS10 (RPS10): binds both eIF1A and RPS10
IC50 (RPS10; read-out: IC50 (line under RPS10 binding data)): 10 µM
IC50 (RPS10; read-out: IC50 concentration (µM), RPS10, summary table, fluorescence binding assay): 10 µM
IC50 (RPS10; read-out: RPS10 IC50): 10 µM
MST binding to denatured eIF1A (eIF1A [8]; 4M Urea): no binding was detected when eIF1A was denatured
MST binding to eIF1A compared with fluorescence assay (eIF1A [8]; native eIF1A): The binding curves and IC-50 were similar
IRF7 5'UTR reporter translation [9]: selectively decreased translation from IRF7 5'UTR
Reference vs IRF7 (Final data, Fig. 1E) ([9]; 1/Result, relative to DMSO, 20 µM): 2.956
SHORT (summary - All), normalized to DMSO ([9]; Short reporter, 20 µM, individual replicates, outliers excluded, DMSO = 1, listed as 8214): 0.75 and 1.70
effect on uORF / leaky scanning reporters ([10]; 20uM (1Ai-5175 at 5uM), overnight): more strongly inhibiting the activity of 5'UTR bearing uORF with short re-initiation distance
normalized to DMSO, 46 leaky, average ([10]; 46 leaky reporter, average of biological repeats): 0.798
normalized to DMSO, -46, average ([10]; -46 reporter, average of biological repeats): 0.564
normalized to DMSO, refference, average ([10]; refference reporter, average of biological repeats): 0.983
normalize to DMSO, AVE ([10]; reporter 46, experiment 03.03.24): 0.3963
normalize to DMSO, AVE ([10]; reporter 46, experiment 28.2.24): 0.5635
normalize to DMSO, AVE ([10]; reporter 46 leaky, experiment 03.03.24): 0.8395
normalize to DMSO, AVE ([10]; reporter 46 leaky, experiment 28.2.24): 0.666
normalize to DMSO, AVE ([10]; reporter refference, experiment 28.2.24): 1.1713
inhibitory effect with extended (long) reinitiation distance ([10]; uORF to main ORF distance extended by 49 nt): retained

“And” between values parts separate entries of the source, which are not always exact repeats. Identical values can stand only once. Like-named read-outs stand apart in the source and are kept apart here.
